# Assay: Toxicity against naive Swiss mouse assessed as lethality measured at 0.1 to 10 mg/kg measured after 7 days
# Conditions: in vivo, 168 h
compound,measurement,value
C[C@@](O)([C@H]1C[C@@]23C=C[C@]1(O)[C@@H]1Oc4c(O)ccc5c4[C@@]12CCN(CC1CC1)[C@@H]3C5)C(F)(F)F.Cl,Activity,Non-Toxic

# — ChEMBL document CHEMBL5360553, “C(21)-fluorinated thevinol scaffold for opioid ligands. 21,21,21-Trifluoro-6-O-nororvinols: Design, synthesis and analgesic activity” (2023)
